Reference: PMC11443384 (Journal of the American Chemical Society, 2023)

Tests used:
mouse peripheral nerves [1] = assay: in vivo/ex vivo epifluorescence imaging
In short: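 Athymic mice got Bac-Hs1a i.v. by lateral tail vein (1 nmol; 11 μM in 100 μL PBS) or 100 μL PBS, and were sacrificed 30 min later (terminal). Peripheral nerves of upper and lower extremities were surgically exposed. IVIS Spectrum epifluorescence (ex 680/20 nm, em 720–750 nm) was taken before and after exposure and on resected organs. Mean ± SD of biological replicates; unpaired t test.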

[2] = PET imaging quantification / acute biodistribution after [^64Cu]Cu-Bac-Hs1a; format: in vivo; conditions: athymic nude, mouse, liver, total radioactivity, liver (highest non-target uptake), 60 min post-injection
mouse peripheral nerves [3] = assay: Cerenkov luminescence imaging of mice injected with [^64Cu]Cu-Bac-Hs1a; format: in vivo; conditions: resected nerves; unit not printed in b35 (p/s/cm^2/sr)
In short: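 Athymic nude mice received PBS-formulated [⁶⁴Cu]Cu-Bac-Hs1a alone, or a block formulation of radiotracer plus unlabeled Hs1a. Nerves and organs were resected and imaged ex vivo by Cerenkov luminescence. ROIs were drawn on resected organs under overlay guidance. Data are mean ± SD of biological replicates, compared by parametric Student's t test.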

[4] = acute biodistribution, organ radioactivity; format: in vivo; conditions: mouse, total radioactivity
In short: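 Athymic nude mice were given PBS-formulated [⁶⁴Cu]Cu-Bac-Hs1a, either alone or as a block formulation with unlabeled Hs1a. Radioactivity in each organ was expressed as percentage of injected dose per gram of tissue (%ID/g). Data are mean ± SD of biological replicates; groups compared by Student's unpaired t test.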

[5] = Radio-HPLC stability in saline and serum solutions; format: in vitro ADME; conditions: n = 3
[6] = biodistribution, resected organs, fluorescence, 30 min after i.v. injection
[7] = mice after lateral tail vein injection, epifluorescence

Structure (SMILES) | difference in radiant efficiency vs PBS, sciatic nerve (mouse peripheral nerves [1]; Bac-Hs1a-injected vs PBS-injected mice) [fold] | fluorescence in other organs (muscles, heart, spleen, brain) vs PBS group (mouse peripheral nerves [1]; biodistribution, fluorescence) | kidney radiant efficiency (mouse peripheral nerves [1]; [6]) | liver radiant efficiency (mouse peripheral nerves [1]; [6]) | radiant efficiency after surgical nerve exposure (post) (mouse peripheral nerves [1]; [7]) | radiant efficiency before surgical nerve exposure (pre) (mouse peripheral nerves [1]; [7]) | tissue uptake at 1 h [2] [%ID/g] | mean radiant efficiency (Cerenkov luminescence), brachial plexus, ex vivo (mouse peripheral nerves [3]) | radiant efficiency (Cerenkov luminescence), sciatic nerves, ex vivo (mouse peripheral nerves [3]) | tissue uptake ([4]; liver) [%ID/g] | tissue uptake ([4]; peripheral nerves) [%ID/g] | stability of the radiolabeled tracer (radiochemical purity) [5]
CC(C)C[C@H](NC(=O)[C@H](CCCCN)NC(=O)CNC(=O)[C@H](CCCCN)NC(=O)[C@@H]1CSSC[C@@H]2NC(=O)[C@H](CCCCN)NC(=O)[C@H](CC(=O)O)NC(=O)[C@H](CC(N)=O)NC(=O)[C@H](CCCCNC(=O)CCC(=O)N3CC4c5nc(c(-c6c(F)c(F)c(F)c(F)c6F)c6ccc([nH]6)c(-c6c(F)c(F)c(F)c(F)c6F)c6nc(c(-c7c(F)c(F)c(F)c(F)c7F)c7ccc([nH]7)c5-c5c(F)c(F)c(F)c(F)c5F)C5CN(C)CC65)C4C3)NC(=O)[C@@H]3CCCN3C(=O)[C@H](CC(N)=O)NC(=O)[C@@H]3CSSC[C@H](NC(=O)[C@H](C(C)C)NC(=O)[C@H](CC(C)C)NC(=O)[C@H](CC(N)=O)NC(=O)[C@H](C)NC(=O)[C@H](CSSC[C@H](NC(=O)[C@H](CC(=O)O)NC(=O)[C@H](CC(N)=O)NC(=O)CN)C(=O)N[C@@H](CC(C)C)C(=O)NCC(=O)N[C@@H](Cc4ccccc4)C(=O)N[C@@H](Cc4c[nH]c5ccccc45)C(=O)N[C@@H](CO)C(=O)N[C@@H](C)C(=O)N3)NC2=O)C(=O)N[C@@H](CO)C(=O)N[C@@H](CO)C(=O)N[C@@H](CCCCN)C(=O)N[C@@H](Cc2c[nH]cn2)C(=O)N[C@@H](CCCCN)C(=O)N[C@@H](Cc2c[nH]c3ccccc23)C(=O)N1)C(=O)O (stereo partly drawn) [Bac-Hs1a] | 15 | did not observe significant fluorescence | 3.8 ± 1.3 × 10^7 | 2.1 ± 1.0 × 10^7 | 0.69 ± 0.02 × 10^9 | 0.7 ± 0.04 × 10^9 |  |  |  |  |  | 
CC(C)C[C@H](NC(=O)[C@H](CCCCN)NC(=O)CNC(=O)[C@H](CCCCN)NC(=O)[C@@H]1CSSC[C@@H]2NC(=O)[C@H](CCCCN)NC(=O)[C@H](CC(=O)O)NC(=O)[C@H](CC(N)=O)NC(=O)[C@H](CCCCNC(=O)CCC(=O)N3CC4c5nc(c(-c6c(F)c(F)c(F)c(F)c6F)c6ccc([nH]6)c(-c6c(F)c(F)c(F)c(F)c6F)c6nc(c(-c7c(F)c(F)c(F)c(F)c7F)c7ccc([nH]7)c5-c5c(F)c(F)c(F)c(F)c5F)C5CN(C)CC65)C4C3)NC(=O)[C@@H]3CCCN3C(=O)[C@H](CC(N)=O)NC(=O)[C@@H]3CSSC[C@H](NC(=O)[C@H](C(C)C)NC(=O)[C@H](CC(C)C)NC(=O)[C@H](CC(N)=O)NC(=O)[C@H](C)NC(=O)[C@H](CSSC[C@H](NC(=O)[C@H](CC(=O)O)NC(=O)[C@H](CC(N)=O)NC(=O)CN)C(=O)N[C@@H](CC(C)C)C(=O)NCC(=O)N[C@@H](Cc4ccccc4)C(=O)N[C@@H](Cc4c[nH]c5ccccc45)C(=O)N[C@@H](CO)C(=O)N[C@@H](C)C(=O)N3)NC2=O)C(=O)N[C@@H](CO)C(=O)N[C@@H](CO)C(=O)N[C@@H](CCCCN)C(=O)N[C@@H](Cc2c[nH]cn2)C(=O)N[C@@H](CCCCN)C(=O)N[C@@H](Cc2c[nH]c3ccccc23)C(=O)N1)C(=O)O (stereo partly drawn) [[^64Cu]Cu-Bac-Hs1a, metal not drawn] |  |  |  |  |  |  | 9.8 ± 2.8 | 6378 ± 2048 | 6635 ± 1773 | 35.8 ± 0.5 | 41.8 ± 0.8 | high stability
